molecular target: mammalian target of rapamycin (mTOR) (Homo sapiens (Human), UniProt P42345); conditions: read-out: mTOR IC50

SMILES	IC50
COc1ccc(Nc2ncc(C(O)c3cc(Br)ccc3S(=O)(=O)N(C)C)cc2-c2nc(C)nc(N)n2)cn1 (stereo not drawn) [Example 235, 2-((5-(4-Amino-6-Methyl-1,3,5-Triazin-2-yl)-6-(6-Methoxypyridin-3-Ylamino)Pyridin-3-yl)(Hydroxy)Methyl)-4-Bromo-N,N-Dimethylbenzenesulfonamide]	0.726 µM
COc1ccc(Nc2ncc(C(O)c3ccc(S(=O)(=O)N(C)C)cc3)cc2-c2nc(C)nc(N)n2)cn1 (stereo not drawn) [Example 236, 4-((5-(4-Amino-6-Methyl-1,3,5-Triazin-2-yl)-6-(6-Methoxypyridin-3-Ylamino)Pyridin-3-yl)(Hydroxy)Methyl)-N,N-Dimethylbenzenesulfonamide]	4.77 µM
COc1ccc(Nc2ncc(C(N)c3ccc(S(=O)(=O)N(C)C)cc3)cc2-c2nc(C)nc(N)n2)cn1 (stereo not drawn) [Example 237, 4-(Amino(5-(4-Amino-6-Methyl-1,3,5-Triazin-2-yl)-6-(6-Methoxypyridin-3-Ylamino)Pyridin-3-yl)Methyl)-N,N-Dimethylbenzenesulfonamide]	> 10 µM
COc1ccc(Nc2nc3ccccc3cc2-c2nc(C)nc(N)n2)cn1 [Example 238, 3-(4-Amino-6-Methyl-1,3,5-Triazin-2-yl)-N-(6-Methoxypyridin-3-yl)Quinolin-2-Amine]	> 10 µM
COc1ccc(Nc2ccccc2-c2nc(C)nc(N)n2)cn1 [Example 239, 4-(2-(6-Methoxypyridin-3-Ylamino)Phenyl)-6-Methyl-1,3,5-Triazin-2-Amine]	> 10 µM
Cc1nc(N)nc(-c2cc(CN3CCN(S(C)(=O)=O)CC3)cnc2Nc2ccc3scnc3c2)n1 [Example 240, N-(3-(4-Amino-6-Methyl-1,3,5-Triazin-2-yl)-5-((4-(Methylsulfonyl)Piperazin-1-yl)Methyl)Pyridin-2-yl)Benzo[D]Thiazol-5-Amine]	0.849 µM
Cc1nc(N)nc(-c2cc(CN3CCN(S(C)(=O)=O)CC3)cnc2Nc2ccc3ncsc3c2)n1 [Example 241, N-(3-(4-Amino-6-Methyl-1,3,5-Triazin-2-yl)-5-((4-(Methylsulfonyl)Piperazin-1-yl)Methyl)Pyridin-2-yl)Benzo[D]Thiazol-6-Amine]	> 10 µM
Cc1nc(N)nc(-c2cc(CN3CCN(S(C)(=O)=O)CC3)cnc2Nc2cn[nH]c2)n1 [Example 243, 4-(2-(1H-Pyrazol-4-Ylamino)-5-((4-(Methylsulfonyl)Piperazin-1-yl)Methyl)Pyridin-3-yl)-6-Methyl-1,3,5-Triazin-2-Amine]	1.75 µM
Cc1nc(N)nc(-c2cc(CN3CCN(S(C)(=O)=O)CC3)cnc2Nc2cc[nH]n2)n1 [Example 244, 4-(2-(1H-Pyrazol-3-Ylamino)-5-((4-(Methylsulfonyl)Piperazin-1-yl)Methyl)Pyridin-3-yl)-6-Methyl-1,3,5-Triazin-2-Amine]	0.389 µM
Cc1nc(N)nc(-c2cc(CN3CCN(S(C)(=O)=O)CC3)cnc2Nc2cc(F)cc3[nH]ncc23)n1 [Example 245, N-(3-(4-Amino-6-Methyl-1,3,5-Triazin-2-yl)-5-((4-(Methylsulfonyl)Piperazin-1-yl)Methyl)Pyridin-2-yl)-6-Fluoro-1H-Indazol-4-Amine]	> 10 µM
COc1ncc(Nc2ncccc2-c2nc(C)nc(N)n2)cc1F [Example 246, 4-(2-(5-Fluoro-6-Methoxypyridin-3-Ylamino)Pyridin-3-yl)-6-Methyl-1,3,5-Triazin-2-Amine]	> 10 µM
COc1ccc(Nc2ncc(-c3cnn(C)c3)cc2-c2nc(C)nc(N)n2)cn1 [Example 247, 4-(2-(6-Methoxypyridin-3-Ylamino)-5-(1-Methyl-1H-Pyrazol-4-yl)Pyridin-3-yl)-6-Methyl-1,3,5-Triazin-2-Amine]	> 10 µM
Cc1nc(N)nc(-c2cccnc2Nc2ccc(F)c(F)c2)n1 [Example 248]	> 10 µM
COc1ccc(Nc2ncc(-c3cn[nH]c3)cc2-c2nc(C)nc(N)n2)cn1 [Example 250, 4-(2-(6-Methoxypyridin-3-Ylamino)-5-(1H-Pyrazol-4-yl)Pyridin-3-yl)-6-Methyl-1,3,5-Triazin-2-Amine]	> 10 µM
COc1ccc(Nc2ncc(-c3ccc(C)nc3)cc2-c2nc(C)nc(N)n2)cn1 [Example 251, 5-(4-Amino-6-Methyl-1,3,5-Triazin-2-yl)-N-(6-Methoxypyridin-3-yl)-6′-Methyl-3,3′-Bipyridin-6-Amine]	> 10 µM
COc1ccc(Nc2ncc(-c3ccnnc3)cc2-c2nc(C)nc(N)n2)cn1 [Example 252, 4-(2-(6-Methoxypyridin-3-Ylamino)-5-(Pyridazin-4-yl)Pyridin-3-yl)-6-Methyl-1,3,5-Triazin-2-Amine]	> 10 µM
COc1ccc(Nc2ncc(-c3cncc(F)c3)cc2-c2nc(C)nc(N)n2)cn1 [Example 253, 5-(4-Amino-6-Methyl-1,3,5-Triazin-2-yl)-5′-Fluoro-N-(6-Methoxypyridin-3-yl)-3,3′-Bipyridin-6-Amine]	> 10 µM
COc1ccc(Nc2nc(-c3cccnc3)ccc2-c2nc(C)nc(N)n2)cn1 [Example 254, 5-(4-Amino-6-Methyl-1,3,5-Triazin-2-yl)-N-(6-Methoxypyridin-3-yl)-2,3′-Bipyridin-6-Amine]	> 10 µM

SMILES	IC50
COc1ncc(Nc2nc(-c3cccnc3)ccc2-c2nc(C)nc(N)n2)cc1F [Example 255, 5-(4-Amino-6-Methyl-1,3,5-Triazin-2-yl)-N-(5-Fluoro-6-Methoxypyridin-3-yl)-2,3′-Bipyridin-6-Amine]	> 10 µM
COc1ccc(Nc2ncc(C3=CCOCC3)cc2-c2nc(C)nc(N)n2)cn1 [Example 256, 4-(5-(3,6-Dihydro-2H-Pyran-4-yl)-2-(6-Methoxypyridin-3-Ylamino)Pyridin-3-yl)-6-Methyl-1,3,5-Triazin-2-Amine]	> 10 µM
Cc1nc(N)nc(-c2cc(Cl)cnc2Nc2cncc(F)c2)n1 [Example 257, 4-(5-Chloro-2-(5-Fluoropyridin-3-Ylamino)Pyridin-3-yl)-6-Methyl-1,3,5-Triazin-2-Amine]	> 10 µM
Cc1nc(N)nc(-c2cc(-c3cnn(C)c3)cnc2Nc2cncc(F)c2)n1 [Example 258, 4-(2-(5-Fluoropyridin-3-Ylamino)-5-(1-Methyl-1H-Pyrazol-4-yl)Pyridin-3-yl)-6-Methyl-1,3,5-Triazin-2-Amine]	> 10 µM
COCCOc1ccc(-c2nc(C)nc(N)n2)c(Nc2cnc(OC)c(F)c2)n1 [Example 259, 4-(2-(5-Fluoro-6-Methoxypyridin-3-Ylamino)-6-(2-Methoxyethoxy)Pyridin-3-yl)-6-Methyl-1,3,5-Triazin-2-Amine]	> 10 µM
Cc1nc(N)nc(-c2cc(CN3CCN(S(C)(=O)=O)CC3)cnc2Nc2ccc3[nH]cnc3c2)n1 [Example 260, N-(3-(4-Amino-6-Methyl-1,3,5-Triazin-2-yl)-5-((4-(Methylsulfonyl)Piperazin-1-yl)Methyl)Pyridin-2-yl)-1H-Benzo[D]Imidazol-5-Amine]	0.501 µM
Cc1nc(N)nc(-c2cc(CN3CCNCC3)cnc2Nc2ccc3[nH]cnc3c2)n1 [Example 261, N-(3-(4-Amino-6-Methyl-1,3,5-Triazin-2-yl)-5-(Piperazin-1-Ylmethyl)Pyridin-2-yl)-1H-Benzo[D]Imidazol-5-Amine]	2.21 µM
COc1ccc(Nc2ncc(OC(F)F)cc2-c2nc(C)nc(N)n2)cn1 [Example 262, 4-(5-(Difluoromethoxy)-2-(6-Methoxypyridin-3-Ylamino)Pyridin-3-yl)-6-Methyl-1,3,5-Triazin-2-Amine]	> 10 µM
Cc1nc(N)nc(-c2cccnc2Nc2cc[nH]c(=O)c2)n1 [Example 263, 4-(3-(4-Amino-6-Methyl-1,3,5-Triazin-2-yl)Pyridin-2-Ylamino)Pyridin-2(1H)-One]	> 10 µM
CC(=O)Nc1ccc(Nc2ncc(Cl)cc2-c2nc(C)nc(N)n2)cc1F [Example 266, N-(4-(3-(4-Amino-6-Methyl-1,3,5-Triazin-2-yl)-5-Chloropyridin-2-Ylamino)-2-Fluorophenyl)Acetamide]	0.463 µM
CC(=O)Nc1ccc(Nc2ncc(CN3CCN(S(C)(=O)=O)CC3)cc2-c2nc(C)nc(N)n2)cc1F [Example 267, N-(4-(3-(4-Amino-6-Methyl-1,3,5-Triazin-2-yl)-5-((4-(Methylsulfonyl)Piperazin-1-yl)Methyl)Pyridin-2-Ylamino)-2-Fluorophenyl)Acetamide]	0.623 µM
CC(=O)Nc1ccc(Nc2ncc(CN3CCN(S(C)(=O)=O)CC3)cc2-c2nc(C)nc(N)n2)cc1 [Example 268, N-(4-(3-(4-Amino-6-Methyl-1,3,5-Triazin-2-yl)-5-((4-(Methylsulfonyl)Piperazin-1-yl)Methyl)Pyridin-2-Ylamino)Phenyl)Acetamide]	0.161 µM
COc1ncc(Nc2ncc(C(C)(C)O)cc2-c2nc(C)nc(N)n2)cc1F [Example 273, 2-(5-(4-Amino-6-Methyl-1,3,5-Triazin-2-yl)-6-(5-Fluoro-6-Methoxypyridin-3-Ylamino)Pyridin-3-yl)Propan-2-ol]	> 10 µM
COc1ncc(Nc2ncc([C@H](C)N3CCOCC3)cc2-c2cc(N)nc(C)n2)cc1F [Example 275, 6-(2-((5-Fluoro-6-Methoxy-3-Pyridinyl)Amino)-5-((1S)-1-(4-Morpholinyl)Ethyl)-3-Pyridinyl)-2-Methyl-4-Pyrimidinamine]	> 10 µM
COc1ncc(Nc2ncc([C@@H](C)N3CCOCC3)cc2-c2cc(N)nc(C)n2)cc1F [Example 276, 6-(2-((5-Fluoro-6-Methoxy-3-Pyridinyl)Amino)-5-((1R)-1-(4-Morpholinyl)Ethyl)-3-Pyridinyl)-2-Methyl-4-Pyrimidinamine]	> 10 µM
COc1ccc(Nc2ncc(C(C)(C)N)cc2-c2nc(C)nc(N)n2)cn1 [Example 277, 4-(5-(2-Aminopropan-2-yl)-2-(6-Methoxypyridin-3-Ylamino)Pyridin-3-yl)-6-Methyl-1,3,5-Triazin-2-Amine]	0.517 µM
COc1ncc(Nc2ncc(C(C)(C)N)cc2-c2nc(C)nc(N)n2)cc1F [Example 278, 4-(5-(2-Aminopropan-2-yl)-2-(5-Fluoro-6-Methoxypyridin-3-Ylamino)Pyridin-3-yl)-6-Methyl-1,3,5-Triazin-2-Amine]	> 10 µM
COc1ccc(Nc2ncc(C(C)(C)N3CCN(S(C)(=O)=O)CC3)cc2-c2nc(C)nc(N)n2)cn1 [Example 279, 4-(2-(6-Methoxypyridin-3-Ylamino)-5-(2-(4-(Methylsulfonyl)Piperazin-1-yl)Propan-2-yl)Pyridin-3-yl)-6-Methyl-1,3,5-Triazin-2-Amine]	1.78 µM
